Assay results from PubChem BioAssay AID652039 (The Scripps Research Institute Molecular Screening Center, 2013).
This is a selection; strong and weak results do not stand in their true shares. Some salts and complexes are drawn in separate pieces, as the source files them; their charges need not balance. Activity calls are given as the source filed them.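 The calls were made as follows: active = activation above the mean of all tested compounds plus 3 SD, computed per campaign excluding outliers beyond control limits (cut at about 13% in these data); inactive = the rest.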

The chains behind the UniProt entries cited, without tags or fusion partners.
UniProt P49862, whole entry: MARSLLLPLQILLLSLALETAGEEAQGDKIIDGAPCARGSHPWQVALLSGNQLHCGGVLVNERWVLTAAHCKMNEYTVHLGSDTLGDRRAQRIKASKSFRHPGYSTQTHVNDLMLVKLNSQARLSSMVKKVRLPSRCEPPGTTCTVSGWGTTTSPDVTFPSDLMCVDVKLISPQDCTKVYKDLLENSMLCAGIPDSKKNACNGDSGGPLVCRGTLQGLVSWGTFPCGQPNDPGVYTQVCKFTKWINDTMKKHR

What follows are compounds tested against Kallikrein-7 (Homo sapiens) (UniProt P49862) (assay: activation of human kallikrein-7 proenzyme – biochemical, fluorescence intensity, primary screen (AID 652039)). Conditions: purified proKLK7, EDANS-DABCYL substrate fluorescence; at 7 µM; active compounds read high; 100% is mature enzyme control, 0% vehicle.
In the case of `O=[N+]([O-])c1cc([N+](=O)[O-])c(-c2cnn(-c3ccccc3)c2)c([N+](=O)[O-])c1`, the activation is reported as inactive: 0.4%. `Cc1nc2ccc3ccccc3c2s1.O=[N+]([O-])c1cc([N+](=O)[O-])c(O)c([N+](=O)[O-])c1` was tested, and the activation was inactive: -0.03%. `O=[N+]([O-])c1cc([N+](=O)[O-])c(-n2nnc3ccccc32)c([N+](=O)[O-])c1` was tested, and the activation was inactive: 0.48%. `CN(Cc1cccnc1)C(=O)COc1ccc(Cl)c(Cl)c1.O=[N+]([O-])c1cc([N+](=O)[O-])c(O)c([N+](=O)[O-])c1` was tested, and the activation was inactive: -0.38%. For `COc1ccccc1OP(C)(=O)Nc1c(C)cccc1C` (centres undefined), the activation was inactive: 0.76%. `CN1CCCCC1COC(=O)C1(O)c2ccccc2CCc2ccccc21` (centres undefined) was tested, and the activation was inactive: -0.11%. For `COc1ccc(-c2ccccn2)cc1.O=[N+]([O-])c1cc([N+](=O)[O-])c(O)c([N+](=O)[O-])c1`, the activation was inactive: -0.38%. In the case of `CCCOc1ccc(NP(C)(=O)Oc2ccc(Cl)cc2)cc1` (centres undefined), the activation is reported as inactive: 0.4%. With `CP(=O)(Nc1ccc(SC(F)(F)F)cc1)Oc1ccccc1` (centres undefined) the activation was inactive: -0.35%. In the case of `O=[N+]([O-])c1cc([N+](=O)[O-])c(Nc2nnnn2CCO)c([N+](=O)[O-])c1`, the activation is reported as inactive: -0.72%. For `CCOC(=O)C(CC)C1=NC(C)(C)Cc2ccccc21.O=[N+]([O-])c1cc([N+](=O)[O-])c(O)c([N+](=O)[O-])c1` (centres undefined), the activation was inactive: 0.46%. For `CC1=NCCc2c1[nH]c1ccccc21.O=[N+]([O-])c1cc([N+](=O)[O-])c(O)c([N+](=O)[O-])c1`, the activation was inactive: 12%. In the case of `O=C(O)c1cccc(Nc2c([N+](=O)[O-])cc([N+](=O)[O-])cc2[N+](=O)[O-])c1`, the activation is reported as inactive: 0.2%. With `Cc1ccc(C)c(NP(C)(=O)Oc2ccccc2)c1` (centres undefined) the activation was inactive: -0.13%. For `Cc1cc(C)cc(OP(C)(=O)Nc2ccccn2)c1` (centres undefined), the activation was inactive: -0.77%. `CP(=O)(Nc1cccc(Br)c1)Oc1ccccc1` (centres undefined) was tested, and the activation was inactive: 0.36%. With `COc1ccccc1OP(C)(=O)Nc1cccc(Br)c1` (centres undefined) the activation was inactive: -0.59%. In the case of `CCOC(=O)c1ccc(NP(C)(=O)Oc2cc(C)cc(C)c2)cc1` (centres undefined), the activation is reported as inactive: 0.11%. `Cc1cc(C)cc(OP(C)(=O)Nc2ccc(C)cc2C)c1` (centres undefined) was tested, and the activation was inactive: -0.22%. With `COc1ccccc1-c1ccccn1.O=[N+]([O-])c1cc([N+](=O)[O-])c(O)c([N+](=O)[O-])c1` the activation was inactive: 0.19%. For `CCN(CC)CCCOC(=O)C(O)(c1ccccc1)c1ccccc1`, the activation was inactive: -0.3%. In the case of `COc1ccccc1OP(C)(=O)Nc1ccc(C)cc1` (centres undefined), the activation is reported as inactive: -0.81%. `Cc1ccc(NP(C)(=O)Oc2ccccc2)c(C)c1` (centres undefined) was tested, and the activation was inactive: -0.22%. `CCOC(=O)c1ccc(NP(C)(=O)Oc2ccccc2)cc1` (centres undefined) was tested, and the activation was inactive: -0.42%. With `Cc1cc(C)cc(OP(C)(N)=O)c1` (centres undefined) the activation was inactive: 0.18%. For `COc1ccccc1OP(C)(=O)Nc1cc(Cl)ccc1C` (centres undefined), the activation was inactive: 0.21%. With `COc1ccc(OP(C)(=O)Nc2cccc(F)c2)cc1` (centres undefined) the activation was inactive: 0.33%. With `O=[N+]([O-])c1cc([N+](=O)[O-])c(Nc2cccnc2)c([N+](=O)[O-])c1` the activation was inactive: -0.05%. `O=[N+]([O-])c1ccc2c(c1)C=Nc1ccccc1O2` was tested, and the activation was inactive: 0.29%. `CC(C)(C)c1ccc(OP(C)(=O)Nc2ccc(SC(F)(F)F)cc2)cc1` (centres undefined) was tested, and the activation was inactive: 0.24%. With `Cc1cccc(C)c1OP(C)(N)=O` (centres undefined) the activation was inactive: -0.22%. `CP(=S)(Nn1cnnc1)Oc1ccccc1` (centres undefined) was tested, and the activation was inactive: -0.01%. `CP(=O)(Nc1ccccc1Br)Oc1ccccc1` (centres undefined) was tested, and the activation was inactive: 0.33%. In the case of `COc1ccccc1OP(C)(=O)Nc1ccccc1` (centres undefined), the activation is reported as inactive: 0.01%. `CCOC(=O)c1ccc(NP(C)(=O)Oc2ccc(OC)cc2)cc1` (centres undefined) was tested, and the activation was inactive: 0.11%. In the case of `O=[N+]([O-])c1cc([N+](=O)[O-])c(O)c([N+](=O)[O-])c1.c1ccc(Oc2ccncc2)cc1`, the activation is reported as inactive: -0.27%. `CCOP(C)(=S)SCC(=O)NC(C)C(=O)O` (centres undefined) was tested, and the activation was inactive: 0.61%. In the case of `CP(=O)(Nc1ccccn1)Oc1ccc(Cl)cc1` (centres undefined), the activation is reported as inactive: -0.23%. With `Cc1cccc(C)c1OP(C)(=O)Nc1ccc(SC(F)(F)F)cc1` (centres undefined) the activation was inactive: -0.05%. With `CP(=O)(Nc1ccc(SC(F)(F)F)cc1)Oc1ccc(Cl)cc1` (centres undefined) the activation was inactive: 0.69%. With `CP(=O)(Oc1ccccc1)OC(c1ccccc1)C(F)(F)F` (centres undefined) the activation was inactive: 0.38%. `CP(=O)(NC(=O)Nc1ccccc1)Oc1ccccc1` (centres undefined) was tested, and the activation was inactive: 0.03%. In the case of `CCc1ccc(OP(C)(=O)N2CCN(c3ccc([N+](=O)[O-])cc3)CC2)cc1` (centres undefined), the activation is reported as inactive: 0.91%. For `Cc1cc(C)cc(OP(C)(=O)Nc2ccc(SC(F)(F)F)cc2)c1` (centres undefined), the activation was inactive: 0.37%. With `COc1ccccc1OP(C)(=O)Nc1ccccc1Br` (centres undefined) the activation was inactive: -0.29%. `CC(C)(C)c1ccc(OP(C)(=O)O)cc1` was tested, and the activation was inactive: -0.35%. With `CP(=O)(Nc1ccc(Cl)cc1)Oc1ccc(F)cc1` (centres undefined) the activation was inactive: -0.54%. `CN(C)C(=O)c1c([N+](=O)[O-])cc([N+](=O)[O-])cc1[N+](=O)[O-]` was tested, and the activation was inactive: 0.02%. `CCN(CC)CC(O)COC(=O)C(O)(c1ccccc1)C1CCCCC1` (centres undefined) was tested, and the activation was inactive: 0.23%. `COc1ccc(OP(C)(=O)Nc2ccc(Br)cc2)cc1` (centres undefined) was tested, and the activation was inactive: -0.11%. `COc1ccccc1OP(C)(=O)Nc1c(C)n(C)n(-c2ccccc2)c1=O` (centres undefined) was tested, and the activation was inactive: -0.14%. With `O=C(OCCCN1CCCC1)C(O)(c1ccccc1)C1CCCCC1` (centres undefined) the activation was inactive: -0.23%. In the case of `CP(=O)(Oc1ccccc1)N1CCOC1=O` (centres undefined), the activation is reported as inactive: 0.24%. In the case of `CCc1ccc(OP(C)(=O)Nc2cccnc2)cc1` (centres undefined), the activation is reported as inactive: -0.54%. For `Nc1ccc2c(ccc3cccnc32)n1.O=[N+]([O-])c1cc([N+](=O)[O-])c(O)c([N+](=O)[O-])c1`, the activation was active: 13.6%. `CCOC(=O)c1ccc(NP(C)(=O)Oc2ccc(Cl)cc2)cc1` (centres undefined) was tested, and the activation was inactive: 0.07%. `CP(=O)(OC12CC3CC(CC(C3)C1)C2)OC12CC3CC(CC(C3)C1)C2` was tested, and the activation was inactive: -0.44%. In the case of `CCCCCCCCCCCCCCCC1C[N+](C)(C)CCOP(C)(=O)O1` (centres undefined), the activation is reported as inactive: -0.05%. In the case of `CP(=O)(Nc1ccc(Cl)cc1Cl)Oc1ccccc1` (centres undefined), the activation is reported as inactive: -0.54%. For `CP(=O)(OCCOc1ccccc1)OCCOc1ccccc1`, the activation was inactive: -0.05%. In the case of `O=C1C(O)=C([N+](=O)[O-])C(=O)C(O)=C1[N+](=O)[O-]`, the activation is reported as inactive: 0.32%. With `Cc1cc(C)cc(OP(C)(=O)Nc2cccc(C(F)(F)F)c2)c1` (centres undefined) the activation was inactive: -0.15%. `COc1ccccc1OP(C)(=O)Nc1ccc(C)c(C)c1` (centres undefined) was tested, and the activation was inactive: 0.68%. For `COc1ccc(OP(C)(=O)Nc2ccccc2Br)cc1` (centres undefined), the activation was inactive: 0.05%. `Cc1c(NP(C)(=O)Oc2ccc(C(C)C)cc2)c(=O)n(-c2ccccc2)n1C` (centres undefined) was tested, and the activation was inactive: 0.25%. With `O=[N+]([O-])c1cc([N+](=O)[O-])c(Nc2ccccn2)c([N+](=O)[O-])c1` the activation was inactive: 0.42%. In the case of `CP(=O)(Nc1ccccn1)Oc1ccccc1` (centres undefined), the activation is reported as inactive: -0.41%. In the case of `COc1ccccc1OP(C)(=O)Nc1ccc(C)cc1C` (centres undefined), the activation is reported as inactive: -0.19%. With `CCc1ccc(OP(C)(=O)O)cc1` the activation was inactive: -0.26%. In the case of `COc1ccccc1OP(C)(=O)Nc1ccc(Br)cc1` (centres undefined), the activation is reported as inactive: 0.24%. In the case of `COc1ccc(OP(C)(=O)Nc2ccccn2)cc1` (centres undefined), the activation is reported as inactive: 0.11%. In the case of `CN(C)CCOC(=O)C(O)(c1ccccc1)C1CCCC1` (centres undefined), the activation is reported as inactive: 0.15%. With `O=C(OC1CN2CCC1CC2)c1ccc([N+](=O)[O-])cc1` (centres undefined) the activation was inactive: -0.55%. With `O=C(OCCN1CCN(CCOCc2ccccc2)CC1)C(O)(c1ccccc1)c1ccccc1` the activation was inactive: -0.2%. With `COc1ccc2c(c1O)-c1c(O)c(OC)cc3c1[C@H](C2)[N+](C)(C)CC3.O=[N+]([O-])c1cc([N+](=O)[O-])c([O-])c([N+](=O)[O-])c1[O-]` the activation was inactive: 8.35%. For `O=[N+]([O-])c1cc([N+](=O)[O-])c(Nc2ccc(Cl)cc2)c([N+](=O)[O-])c1`, the activation was inactive: -0.35%. For `CP(=O)(Nc1ccccc1F)Oc1ccccc1` (centres undefined), the activation was inactive: 0.09%. With `CC(C)c1ccc(OP(C)(=O)Nc2ccc(SC(F)(F)F)cc2)cc1` (centres undefined) the activation was inactive: -0.26%. For `Cc1c([N+](=O)[O-])cc([N+](=O)[O-])c(Br)c1[N+](=O)[O-]`, the activation was inactive: 0.77%. In the case of `CCN(CC)CCCOC(=O)C(O)(c1ccccc1)C1CCCCC1` (centres undefined), the activation is reported as inactive: -1.04%. `CP(=O)(Nc1ccccc1)Oc1ccc(F)cc1` (centres undefined) was tested, and the activation was inactive: 0.43%. In the case of `CCCCCOc1ccc(NP(C)(=O)Oc2ccc(Cl)cc2Cl)cc1` (centres undefined), the activation is reported as inactive: -0.42%. For `O=[N+]([O-])c1cc([N+](=O)[O-])c(OC2CCCCC2O)c([N+](=O)[O-])c1` (centres undefined), the activation was inactive: -0.18%. For `CCN(CC)CCCNc1ccccc1[N+](=O)[O-].O=[N+]([O-])c1cc([N+](=O)[O-])c(O)c([N+](=O)[O-])c1`, the activation was inactive: 0.02%. In the case of `CCOC(=O)c1ccc(NP(C)(=O)Oc2ccc(F)cc2)cc1` (centres undefined), the activation is reported as inactive: 0.45%. In the case of `COc1ccc(OP(C)(=O)Nc2ccc(SC(F)(F)F)cc2)cc1` (centres undefined), the activation is reported as inactive: -0.68%. For `O=[N+]([O-])c1ccc(OP2(=O)COCCO2)cc1` (centres undefined), the activation was inactive: 0.25%. With `O=[N+]([O-])c1cc([N+](=O)[O-])c(NCC2CCS(=O)(=O)C2)c([N+](=O)[O-])c1` (centres undefined) the activation was inactive: 0.42%. For `Cc1cc(-c2cccc3ccccc23)c(C)cn1.O=[N+]([O-])c1cc([N+](=O)[O-])c(O)c([N+](=O)[O-])c1`, the activation was inactive: -0.18%. `Cc1c(C(c2ccc3c(c2)OCO3)c2c(C)n(C)n(-c3ccccc3)c2=O)c(=O)n(-c2ccccc2)n1C.O=[N+]([O-])c1cc([N+](=O)[O-])c(O)c([N+](=O)[O-])c1` was tested, and the activation was inactive: 0.23%. For `COc1ccc(OP(C)(=O)Nc2cccc(Br)c2)cc1` (centres undefined), the activation was inactive: -0.65%. In the case of `CN(C)CCOC(=O)C(O)(c1ccccc1)C1CCCCC1` (centres undefined), the activation is reported as inactive: -0.44%. With `COc1ccc(NP(C)(=O)Oc2ccccc2OC)cc1` (centres undefined) the activation was inactive: 0.46%. For `CP(=O)(Nc1ccc2c(c1)OCCO2)Oc1ccccc1` (centres undefined), the activation was inactive: -0.22%. With `Cc1ccccc1NP(C)(=O)Nc1ccccc1C` the activation was inactive: -0.24%. `O=[N+]([O-])c1cc([N+](=O)[O-])c(C(F)(F)F)c([N+](=O)[O-])c1O` was tested, and the activation was inactive: 0.34%. For `CP(=O)(Nc1ccc(SC(F)(F)F)cc1)Oc1ccc(F)cc1` (centres undefined), the activation was inactive: 0.08%. `CCOP(C)(=S)SCC(=O)NC(C)(CC)C(=O)O` (centres undefined) was tested, and the activation was inactive: 0.42%. With `CCOP(=O)(CC)OCC` the activation was inactive: 0.49%.
